Values quoted from earlier work, collected in patent US12351592B2 (UNIVERSIDAD SANTIAGO DE CALI, priority 2019, dated 2025).

Details: in vivo

CN(C)C(=N)N=C(N)N [Metformin]
binding to plasmatic proteins: not bound to plasmatic proteins
